# From patent US6187906A, “Methods to improve neural outcome” (Aukland Uniservices Limited, priority 1998, dated 2001)
# System: mesencephalic neurons (dopaminergic)
# Assay: Dopamine uptake in 6-OHDA treated embryonic mesencephalic cultures (Experiment 8)
# Assay type: cell-based, Wistar rat
# Conditions: 2 μM
structure (smiles),measurement,value
"CN1Cc2c(N)cccc2C(c2ccccc2)C1 (stereo not shown) [nomifensine maleate, reference compound]",[3H]dopamine uptake counts relative to control values,approximately 10%

# Counter-ions that a name gives are not always drawn.
